Assay results: patent US9580464B2, “Anti-inflammatory proteins and peptides and methods of preparation and use thereof” (ManukaMed Limited, priority 2012, dated 2017)

Target: Cathepsin B from bovine spleen (Bos taurus, UniProt P07688)
Assay: Assay for Cathepsin B activity / inhibition (Z-Lys-pNP substrate, absorbance 330 nm)
Type: biochemical

Q: With TNBS-FAK-pNA as the substance, how does the “Cathepsin B inhibitory activity” value (C-terminus containing paranitroanilide (pNA)) read?
A: limited inhibitory activity

Q: And the “Cathepsin B inhibitory activity” value (pNA group removed with NaOH, before and after MGO-modification, data not shown)?
A: Inhibitory activity was still not observed
